Shown are actives, neighbours in structure and some others; about 13% of the full set was active somewhere.
LMNA splice mod = LMNA splicing modulation. HeLa LMNA splicing GFP/RFP minigene ratio, 48 h. Potency, µM (titrated, usually from 46.1 µM), for the others: at the highest dose ratio change, negative = inhibition, most hits filed as inhibitors. hit rate 0.01% among 200,000; active = well fitted inhibition curve with a large enough effect in the signal ratio, with a control signal flat, not every such curve was filed as active; inconclusive = small, poorly fitted or top-dose-only effect, or effect the other way, or a change in a side signal; the % refers to the signal ratio; note: potency is the fitted concentration of half-maximal effect; % is set by controls: 0 for no effect and ±100 for the full control effect
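S3 HeLa stable clones carrying a lamin A-EGFP splicing minigene plus DsRed2 were seeded at 600 cells/well in Opti-MEM with 2% FBS, pin-dosed and incubated 48 h at 37°C. Acumen cytometry (488 nm) gave the GFP/RFP total-intensity ratio.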
JMJD2E inh = blocks human JMJD2E demethylase activity; AID 2147; JMJD2E catalytic domain, FDH-coupled NADH fluorescence (FDH is formaldehyde dehydrogenase); Potency, µM (series often up to 57.1 µM), for the others: top-dose activity change, negative = inhibition, hits mostly inhibitors; hit rate 1.6% among 230,000; active = well fitted inhibition curve with a large enough effect, not every such curve was filed as active; inconclusive = small, poorly fitted or top-dose-only effect, or another doubt; inactive = no such curve, though single readings can be large or run the other way;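 note: potency is the fitted concentration of half-maximal effect; 0% = wells with enzyme and -100% = buffer wells without enzyme; nearly all actives have a fitted effect of over 50% in size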
Sfp inh = qHTS Assay for Inhibitors of Bacillus subtilis Sfp phosphopantetheinyl transferase (PPTase); Biochemical Sfp PPTase activity, qHTS; Potency, µM, for the others: max response, negative = inhibition, usual class: inhibitors; actives 3.5% (n = 310,000); active means well fitted inhibition curve with a large enough effect; inconclusive means small, poorly fitted or top-dose-only effect, or another doubt; inactive means no such curve, though single readings can be large or run the other way;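 further: the enzyme is Sfp with the accession as filed and its product quenches rhodamine fluorescence; potency means the concentration at half of the fitted maximal effect; 0% = enzyme reaction without inhibitor and -100% = no enzyme wells; top concentration of the series not given in the record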
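Compounds were incubated with enzyme (final 15 nM) for 15 min at room temperature before substrate addition started the reaction. Fluorescence at 525 nm excitation, 598 nm emission was recorded immediately and after 30 minutes.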
G9a inh = inhibitors of human histone lysine methyltransferase G9a | Q96KQ7 | G9a H3K9 monomethylation, AlphaScreen, 2 h | Potency, µM (doses to about 102 µM), for the others: top-dose activity, negative = inhibition, hits mostly inhibitors | hit rate 8.8% among 350,000; note: potency is the fitted concentration of half-maximal effect; % is set by controls: 0 for no effect and ±100 for the full control effect; nearly all actives have a fitted effect of over 75% in size
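Quantitative HTS format: methyltransferase activity on a biotin-tagged H3K9 peptide is measured by AlphaScreen, using a rabbit anti-monomethyl-H3K9 antibody with streptavidin donor and anti-IgG acceptor beads. Final levels are 20 nM enzyme, 500 nM peptide, 20 uM SAM; 2 h RT.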
ALDH1A1 inh = inhibitors of human aldehyde dehydrogenase 1A1 | AID 1030 | hit rate 7.3% among 220,000 | Purified ALDH1A1, NADH fluorescence, propionaldehyde substrate | Potency, µM (series often up to 75.3 µM), for the others: at the top dose activity, negative = inhibition, usual class: inhibitors; active = well fitted inhibition curve with a large enough effect, not every such curve was filed as active; inconclusive = small, poorly fitted or top-dose-only effect, or another doubt; inactive = no such curve, though single readings can be large or run the other way;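 note: potency is the fitted concentration of half-maximal effect; plate controls were no enzyme wells and a reference inhibitor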
miR-21 reporter = miR-21 reporter, rising signal | AID 2288 | HeLa miR-21 FLuc reporter, luciferase, 48 h | 340,000 tested, under 10 active | Potency, µM (titrated, usually from 38.3 µM), for the others: at the top dose reporter change, positive = more light; active = well fitted rising curve with a large enough effect; inconclusive = small, poorly fitted or top-dose-only effect; inactive = no such curve, though single readings can be large or run the other way;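 also: % of control where 0% means no effect; miR-21 action dims this reporter so a rising signal means less miR-21 action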
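Compounds were titrated across several concentrations (up to approximately 40 uM) and incubated 48 hours with HeLa miR-21-FLuc reporter cells (miR-21 target sequence downstream of FLuc, endogenous miR-21). Readout was firefly luciferase luminescence after lytic detection reagent.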
* hit, by the source's call; ? = inconclusive; . = no result given; [ ] = another dose, or the depositor's remark. Unless noted, calls come from the whole dose curve; as a rule, active = well fitted curve in the direction sought with a large enough effect; inconclusive = small, poorly fitted or top-dose-only effect, or another doubt; inactive = no such curve, though single readings can be large; an effect the other way counts as inactive or inconclusive.

nr	molecule	LMNA splice mod	JMJD2E inh	Sfp inh
1	CS(=O)(=O)Nc1cccc(-c2cc(NCc3ccccc3)ncn2)c1	-3%	.	2%
2	CC(C)c1ccc2nc3sc(C(=O)N4CCc5ccccc5C4)c(N)c3cc2c1	9%	-9%	-30%
3	Cc1cc(C)c2c(N)c(C(=O)N3CCc4ccccc4C3)sc2n1	.	-7%	56µM*
4	CCN1CCc2nc3sc(C(=O)N4CCc5ccccc5C4)c(N)c3cc2C1	.	.	45µM*
5	Cc1cc(C)c2c(N)c(C(=O)NC3CCCC3)sc2n1	?	?	11%
6	CC(=O)N1CCC(N(Cc2ccc(C)o2)C(=O)Nc2cccc(C(F)(F)F)c2)CC1	7%[46 µM]	.	.
7	COc1ccc(S(=O)(=O)N2CCc3ccccc32)cc1C(=O)OCc1c(C)noc1C	?	-4%	-2%
8	COc1ccc(S(=O)(=O)N2CCCCCC2)cc1C(=O)OCc1c(C)noc1C	-3%	2%	0%
9	Cc1noc(C)c1COC(=O)c1cccc(S(=O)(=O)N2CCCCCC2)c1	?	-10%	6%
10	Cc1ccc(-n2ncc(C(=O)Nc3cc(Cl)ccc3Cl)c2C2CCNCC2)cc1	?	-3%	5%
11	CN1C(C(=O)c2ccccc2)=C(NC(=O)c2ccc(F)cc2)c2ccccc2S1(=O)=O	.	.	.
12	Cc1ccccc1NC1=C(C(=O)c2ccccc2)N(C)S(=O)(=O)c2ccccc21	?	-3%	2%
13	N#Cc1cc2cc3c(cc2nc1N1CCCCC1)OCCO3	-4%	?	28µM*
14	COc1cccc(C(=O)Nc2cccnc2)c1	-8%	4%	1%
15	CCOC(=O)c1cccc(NC(=S)NC(=O)c2cccnc2)c1	.	.	5%

nr	G9a inh	ALDH1A1 inh	miR-21 reporter
1	3%[0.501 µM]	?	.
2	-4%[12.7 µM]	-15%	-23%
3	71µM*	?	-27%
4	20µM*	.	-9%
5	35µM*	?	-34%
6	?	.	1%
7	-4%[59 µM]	3.2µM*	-8%
8	-5%	14µM*	-14%
9	-13%	?	20%
10	45µM*	5%	7%
11	-32%[59 µM]	.	14%
12	28µM*	5%	-1%
13	?	?	-24%
14	-21%	?	-17%
15	50µM*	.	-1%

The listing continues.
nr	molecule	LMNA splice mod	JMJD2E inh	Sfp inh
16	COc1cccc(NC(=S)NC(=O)c2cccnc2)c1	.	.	-27%
17	CCOC(=O)c1cccc(NC(=O)c2cnccn2)c1	1%	6%	2%
18	COc1ccc(COc2cc(-c3cccc(OC)c3)nc3ccc(NC(=O)c4ccc(OC)cc4)cc23)cc1	?	?	14%
19	COc1ccc(COc2cc(-c3cccc(OC)c3)nc3ccc(NC(=O)c4cccnc4)cc23)cc1	?	?	?
20	COc1ccccc1NC(=O)C1=C(C)Nc2nc(SCc3ccccc3Cl)nn2C1c1cccnc1 (configuration not stated)	.	.	.
21	N#Cc1c(C(F)(F)F)cc(-c2cccs2)nc1SCC(=O)Nc1ccccc1F	.	.	.
22	COc1ccc(-n2cc(C(=O)N(CCN(C)C)Cc3ccccc3)c3ccccc3c2=O)cc1	14%[46 µM]	.	.
23	C=CCN1C(=O)/C(=C/c2ccc(O)cc2)S/C1=N/c1nccs1	?	-4%	-10%
24	C=CCN1C(=O)/C(=C/c2ccc(OC)cc2)S/C1=N/c1nccs1	-13%	4%	0%
25	COc1ccc(Nc2c3c(nc4ccc(NC(=O)/C=C/c5cc(OC)c(OC)c(OC)c5)cc24)CCCC3)cc1OC	.	.	.
26	COc1ccc(/C=C/C(=O)Nc2ccc3nc4c(c(Nc5ccc(OC)c(OC)c5)c3c2)CCCC4)cc1	.	.	.
27	Cc1ccc(NC(=O)CCNS(=O)(=O)c2ccc3[nH]c(=O)oc3c2)cc1C	.	.	5%
28	O=C(O)COc1ccccc1/C=N/n1c(C2CCCCC2)n[nH]c1=S	.	.	50µM*
29	Fc1ccccc1-c1n[nH]c(=S)n1/N=C/c1c[nH]c2ccccc12	.	10%	-9%
30	Cc1ccccc1/C=N/n1c(C2CCCCC2)n[nH]c1=S	.	.	0%

nr	G9a inh	ALDH1A1 inh	miR-21 reporter
16	7.9µM*	.	-14%
17	-20%[12.7 µM]	14%	-16%
18	-2%[59 µM]	?	21%
19	50µM*	?	17%
20	23%[59 µM]	.	-1%
21	?	.	-18%
22	-41%[59 µM]	.	-9%
23	9%[59 µM]	3.2µM*	-12%
24	11%[59 µM]	?	-5%
25	16µM*	.	?
26	8.9µM*	.	?
27	.	.	0%
28	8.9µM*	.	-2%
29	0.71µM*	.	14%
30	13µM*	.	-5%

Next section; the last four above are carried over.
nr	molecule	LMNA splice mod	JMJD2E inh	Sfp inh
27	Cc1ccc(NC(=O)CCNS(=O)(=O)c2ccc3[nH]c(=O)oc3c2)cc1C	.	.	5%
28	O=C(O)COc1ccccc1/C=N/n1c(C2CCCCC2)n[nH]c1=S	.	.	50µM*
29	Fc1ccccc1-c1n[nH]c(=S)n1/N=C/c1c[nH]c2ccccc12	.	10%	-9%
30	Cc1ccccc1/C=N/n1c(C2CCCCC2)n[nH]c1=S	.	.	0%
31	Cc1cc(C)n(/N=C/c2c[nH]c3ccccc23)c(=O)c1	-8%	5%	6%
32	S=c1[nH]nc(C2CCCCC2)n1/N=C/c1ccccc1Br	.	.	-6%
33	O=C(O)COc1ccccc1/C=N/NC(=O)CSc1nnc(-c2ccc(Cl)cc2)n1C1CCCCC1	.	-3%	16%
34	Cc1cc(C)c(NC(=O)c2cc3c(=O)n4ccccc4nc3n2C)c(C)c1	1%[46 µM]	.	.
35	Cc1nc2c3ccccc3nc(NNC(=O)CCC(=O)N3CCN(c4cc(Cl)ccc4C)CC3)n2n1	.	.	.
36	Cc1ccc(CNC(=O)CN2C(=O)CSc3ccc(S(=O)(=O)N(C)C)cc32)cc1	.	.	.
37	COc1ccc(S(=O)(=O)c2nnn(-c3ccc(C(C)C)cc3)c2C)cc1	.	.	.

nr	G9a inh	ALDH1A1 inh	miR-21 reporter
27	.	.	0%
28	8.9µM*	.	-2%
29	0.71µM*	.	14%
30	13µM*	.	-5%
31	3%	-12%	-6%
32	7.1µM*	.	-10%
33	0%	.	0%
34	1%[59 µM]	.	-3%
35	1%[59 µM]	.	-5%
36	-20%[59 µM]	.	0%
37	-26%[59 µM]	.	8%

Compound activity from PubChem BioAssay.
